Source: patent US6482802B1, “Use of neomycin for treating angiogenesis-related diseases” (Endowment for Research in Human Biology, Inc., priority 1998, dated 2002)

Experiments:
[1] = test system: chorioallantoic membrane (CAM) of chick embryos; details: in vivo
[2] = test system: HUVE cells; test: Cytotoxicity against HUVE cells; assay type: cell-based, human; details: up to (about) 200 μM
Method: Human umbilical vein endothelial (HUVE) cells were purchased from Cell Systems Corp. (Kirkland, Wash.). […] Cells between passages 5 and 12 inclusive were used for all experiments. Cell numbers were determined with a Coulter counter, and cell viability was measured by trypan blue dye exclusion assay.

Substance: neomycin
- necrosis or visible adverse effect on the chick embryo [1]: no necrosis or any other visible adverse effect
- cytotoxicity against HUVE cells [2]: no cytotoxicity
